Laboratory results as given in article PMC4778863, “A Four-Point Screening Method for Assessing Molecular Mechanism of Action (MMOA) Identifies Tideglusib as a Time-Dependent Inhibitor of Trypanosoma brucei GSK3β” (PLoS Neglected Tropical Diseases, 2016).

Molecular target: T1, TbGSK3β (Trypanosoma brucei brucei, UniProt Q388M1)
T1 construct: Full-length TbGSK3β (Gene DB ID Tb927.10.13780); 6X His (C); made in house; host or cells: BL21 (DE3) E. coli
T1 sequence (Q388M1 1-352): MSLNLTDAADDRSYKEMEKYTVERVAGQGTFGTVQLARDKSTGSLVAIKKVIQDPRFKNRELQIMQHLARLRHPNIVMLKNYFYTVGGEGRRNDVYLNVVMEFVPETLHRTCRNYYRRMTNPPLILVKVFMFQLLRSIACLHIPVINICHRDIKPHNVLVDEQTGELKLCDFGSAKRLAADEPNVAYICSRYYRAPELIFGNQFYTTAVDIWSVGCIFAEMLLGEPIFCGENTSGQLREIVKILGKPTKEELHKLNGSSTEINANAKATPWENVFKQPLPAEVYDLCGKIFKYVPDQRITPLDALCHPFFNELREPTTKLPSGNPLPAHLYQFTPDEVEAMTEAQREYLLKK
Assay type: biochemical
Conditions: % inhibition at 30 min preincubation / % inhibition at 0 min preincubation at 10 μM ATP
Procedure: TbGSK3β activity was measured by following the ADP formation associated with the phosphorylation of GSM peptide and detected with ADP-Glo at 23°C. The enzyme reaction was conducted in a volume of 20 μL in a buffer containing 20 mM NaCl, 15 mM HEPES pH 7.4, 1 mM EGTA, 10 mM MgCl2, 0.02% Tween. These assays contained GSM at 10μM (approximating Km) or 80 μM (approximating Vmax). ATP was added at 10 μM and 100 μM to approximate Km and Vmax, respectively.
All reactions were incubated for 5 minutes in microcentrifuge tubes, and reactions were terminated at 80°C for 4 min. Of 20 μL reactions, 17.5 μL were transferred into 384 well-plates. Promega ADP-Glo procedures were carried out and phosphorylation measured by Luminoskan Ascent (Thermo Labsystems, Waltham MA). […]
IC50 for inhibition TbGSK3β was determined as a function of preincubation time (Fig 3). […] ADP product formation was measured by ADP-Glo kit.
Preincubated reactions were preincubated with inhibitor, TbGSK3β, GSM peptide, and buffer at room temperature; after 30 minutes reactions were initiated with the addition of ATP. […] Reactions were run for 5 min at room temperature, and stopped heat at 80°C, followed by ice bath, and ADP product formation was measured by ADP-Glo kit. […]
Time dependent inhibition was evaluated by preincubation of TbGSK3β with 60 nM tideglusib and 6 nM GW-8510 with 10μM and 100μM ATP. […] ADP formed was measured by ADP-Glo kit. […]

Cc1cc(Nc2nc(N[C@@H](C)c3ccc(F)cc3)c(C#N)cc2F)[nH]n1 [AZ960]
Ratio Preinc/no preinc: 0.73
